## Ab-91 heavy chain CDR variants: yeast mating affinities

Target peptide (SARS-CoV-2 spike, HR2 region): PDVDLGDISGINAS

Parent: Ab-91, a human scFv built as VL, a 15-residue (Gly4Ser)3 linker, VH. Only the CDRs of the heavy chain vary.
VL: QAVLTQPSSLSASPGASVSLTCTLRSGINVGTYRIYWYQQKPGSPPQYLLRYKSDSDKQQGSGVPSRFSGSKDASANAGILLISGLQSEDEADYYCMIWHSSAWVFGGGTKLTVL
VH: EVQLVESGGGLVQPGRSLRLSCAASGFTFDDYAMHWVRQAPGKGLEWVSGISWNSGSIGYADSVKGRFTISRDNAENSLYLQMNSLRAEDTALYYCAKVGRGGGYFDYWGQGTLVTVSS

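The library (AAYL51) carries one to three amino acid substitutions per variant, with no insertions or deletions. The assay is AlphaSeq: two haploid yeast populations carry antibody and antigen on their surface. Mating (16 h, 30 °C) was followed by selection of diploids and sequencing of their barcodes. The ratio of observed to expected reads was calibrated, replicate by replicate, on BCL2-family standards whose Kd was known from biolayer interferometry. Mating was done three times.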

Substitutions are numbered in sequence along the VH above, starting at 1 (not Kabat).
All variants listed here change D107 of the VH, counted from its first residue.
Values are apparent Kd, the geometric mean of the replicates that gave a signal; lower means stronger binding.
An entry "no signal" has no value in the source: the pair was not observed among the diploids in any replicate. This suggests poor binding but is not conclusive.
Order: sorted from the lowest average up, undetected variants last.

- D62C/G100H/D107I -> 44 nM (3 of 3 replicates)
- D62G/K65C/D107G -> 330 nM (3 of 3 replicates)
- D62L/V64Y/D107S -> 570 nM (2 of 3 replicates)
- G56I/S57C/D107L -> 1.6 µM (3 of 3 replicates)
- D30L/I51S/D107S -> 2.5 µM (1 of 3 replicates)
- H35N/R101D/D107C -> 5.1 µM (1 of 3 replicates)
- V64P/V99G/D107K -> 5.8 µM (1 of 3 replicates)
- M34F/S55F/D107V -> 6.2 µM (1 of 3 replicates)
- F106N/D107I/Y108V -> 7.7 µM (1 of 3 replicates)
- M34D/R101Q/D107P -> 11 µM (2 of 3 replicates)
- T28N/D107W -> 12 µM (1 of 3 replicates)
- M34Q/I51L/D107K -> 15 µM (1 of 3 replicates)
- A33W/Y60G/D107E -> 20 µM (2 of 3 replicates)
- K65A/F106S/D107G -> 21 µM (3 of 3 replicates)
- S52Q/D107A -> 24 µM (3 of 3 replicates)
- S52I/D107A -> 59 µM (1 of 3 replicates)
- G56M/G59R/D107C -> 59 µM (1 of 3 replicates)
- V99A/G104A/D107W -> 71 µM (1 of 3 replicates)
- N54Y/I58Q/D107Q -> 77 µM (1 of 3 replicates)
- D62G/D107C -> 83 µM (1 of 3 replicates)
- I51S/G102S/D107G -> 120 µM (2 of 3 replicates)
- G50N/Y105D/D107E -> 130 µM (2 of 3 replicates)
- F106W/D107I/Y108A -> 150 µM (3 of 3 replicates)
- K65I/V99G/D107M -> 190 µM (2 of 3 replicates)
- Y32F/S55R/D107H -> no signal (0 of 3 replicates)
- N54G/S57G/D107C -> no signal (0 of 3 replicates)
- G102Y/G104Q/D107F -> no signal (0 of 3 replicates)
- T28N/W53N/D107R -> no signal (0 of 3 replicates)
- D31N/D107F -> no signal (0 of 3 replicates)
- A61L/D107P -> no signal (0 of 3 replicates)
- T28R/H35P/D107S -> no signal (0 of 3 replicates)
- I51M/A61Y/D107Q -> no signal (0 of 3 replicates)
- I51E/V64H/D107H -> no signal (0 of 3 replicates)
- V64D/G102L/D107I -> no signal (0 of 3 replicates)

5 of these entries, quoted again:

- G56M/G59R/D107C: 59 µM (1 of 3 replicates)
- M34D/R101Q/D107P: 11 µM (2 of 3 replicates)
- N54Y/I58Q/D107Q: 77 µM (1 of 3 replicates)
- S52I/D107A: 59 µM (1 of 3 replicates)
- D62G/K65C/D107G: 330 nM (3 of 3 replicates)

For reference, the parent read 72 nM as the reference entry and 7.5 nM as a member of this library.
Background: pairings of library AAYL51 with three empty control strains gave a value in 21% of cases (median 34 µM, 5th percentile 1.8 µM). Values in that range, when seen in few replicates, are hard to tell from nonspecific mating.

Source: Engelhart et al. 2022 (doi:10.1038/s41597-022-01779-4), MIT Lincoln Laboratory and A-Alpha Bio; data file from the FLAb repository.